High-throughput results (PubChem)
This is a sample that favours compounds with a hit; in the whole collection about 2.8% have one here.
Wnt act = activates Wnt/beta-catenin signaling in a reporter cell assay; activator, plate reader; activation, % at 9.35 µM; hit rate 1.2% among 300,000; in the data active = activation above about 30%, passing the limit was not always enough; inconclusive = no clear call, values can overlap the other calls;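 also: 0% = neutral control wells and 100% = positive control wells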
PglD inh = blocks C. jejuni PglD acetyltransferase activity; purified PglD enzyme, DTNB colorimetric CoA detection; inhibition, % at 12.5 µM; hit rate 0.098% among 360,000; in the data active = inhibition above about 16%, passing the limit was not always enough; inconclusive = no clear call, values can overlap the other calls
esBAF inh = inhibitors of esBAF chromatin remodeling in mouse ES cells; Bmi1-luciferase knock-in reporter, 24 h; 100% = twice the neutral-well signal; hit rate 2% among 350,000; reporter increase, % at 12.5 µM; in the data active = activation above about 40%; inconclusive = no clear call, values can overlap the other calls;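 also: 0% = median of the plate's neutral control wells and 100% = double that signal; a rise in the Bmi1 reporter signal indicates esBAF inhibition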
MITF act = increases MITF-driven TRPM1 promoter luciferase signal; SK-MEL-5 TRPM1-promoter luciferase, 24 h; % of positive control, neutral wells = 0; activation, % at 12.5 µM; hit rate 0.75% among 300,000; AID 588334;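 active = mean activation of at least 80% with every replicate also reaching 80%; inconclusive = mean reaches 80% but some replicate falls short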;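 also: 0% = neutral control wells and 100% = parthenolide positive control wells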
miR122 inh = blocks miR-122 activity in Huh7 sensor cells | Huh7 miR-122 Renilla luciferase sensor, 48 h; neutral wells = 0, positive control = 100 | activation (reporter increase), % at 12.5 µM | hit rate 0.3% among 340,000 | AID 602342;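 active = mean replicate activation score at least 90 and every replicate individually at or above 90; inconclusive = only one of the two criteria met; inactive = neither criterion met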;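 also: higher luciferase means less miR-122 activity so hits act as miR-122 inhibitors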
UUG fidelity = alters start codon recognition fidelity in yeast | S. cerevisiae UUG-firefly luciferase reporter, luminescence/redox ratio | activity score, % at 18.7 µM | 350,000 compounds, 0.13% hits | AID 602363;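 active = replicate mean at a twofold rise or more, about +100% in these data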;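 note: firefly luciferase made from a UUG start codon reports start codon fidelity; reporter light over untreated wells divided by growth signal over untreated wells; some hits fall short of that in this replicate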
* = called active by the depositor; ? = inconclusive; . = no result given; [ ] = another dose, or the depositor's remark.

[1] Cc1cc(-c2ccc3c(c2)COc2c4ccccc4nn2-3)on1
[2] CCCc1cc(-c2ccc3c(c2)COc2c4ccccc4nn2-3)on1
[3] Cc1ccc2c(c1)COc1c3ccc(C(=O)N4CCCCC4)cc3nn1-2
[4] C(#CC1CCCC1)c1ccc2c(c1)COc1c3ccccc3nn1-2
[5] C[C@@H]1CN([C@@H](C)CO)C(=O)c2cc(C#C[C@@H](C)O)cnc2O[C@@H]1CN(C)Cc1ccccn1
[6] Brc1ccc(C2=NC(Cc3ccccc3)CO2)cc1 (stereo not drawn)
[7] CC1=CC(=C2N=C(c3ccccc3)OC2=O)C=C(C)O1
[8] CC(C)C[C@@H](CNCC(=O)[C@H](C)NC(=O)c1[nH]cnc1C(=O)N[C@@H](C)CN)NC(=O)c1nc[nH]c1C(=O)N[C@@H](Cc1ccccc1)C(=O)O
assay / entry | 1 | 2 | 3 | 4 | 5 | 6 | 7 | 8
Wnt act | 45* | 36* | 21 | 42* | . | 20 | . | -1
PglD inh | -4 | 1 | -4 | 2 | 1 | 5 | -5 | -2
esBAF inh | 6 | -8 | 26 | 60* | -2 | 68* | 64* | -1
MITF act | 64 | ? | ? | 119* | . | . | . | 12
miR122 inh | -4 | 2 | -1 | -2 | 2[16.7 µM] | 8 | -6 | -4
UUG fidelity | -20 | -30 | -15 | -4 | -25 | -21 | 6 | 3

[9] CC(C)C[C@@H](CNCC(=O)[C@H](Cc1c[nH]c2ccccc12)NC(=O)c1[nH]cnc1C(=O)N[C@@H](C)CN)NC(=O)c1nc[nH]c1C(=O)N[C@@H](Cc1ccccc1)C(=O)O
[10] O=C(c1ccccn1)N1C[C@@H]2[C@H](c3ccccc31)[C@@H](CO)N2C(=O)C1CC1
[11] COc1ccc(NS(=O)(=O)c2cc(NC(=O)c3cnccn3)ccc2N2CCCC2)cc1
[12] CNC(=S)Nc1ccc(N2CCCC2)c(S(=O)(=O)Nc2ccc(OC)cc2)c1
[13] COc1ccc(NS(=O)(=O)c2cc(NC(=O)CC(C)(C)C)ccc2N2CCCC2)cc1
[14] Cc1noc(C)c1NC(=O)N[C@@H]1CC[C@H](CC(=O)N2CCN(C)CC2)O[C@@H]1CO
[15] O=C1CSC(c2ccccc2F)N1 (stereo not drawn)
[16] Cc1sc2c(c1C)C(=O)NC(c1ccccc1F)N2 (stereo not drawn)
assay / entry | 9 | 10 | 11 | 12 | 13 | 14 | 15 | 16
Wnt act | -2 | . | -1 | 2 | -1 | . | -2 | 32*
PglD inh | -1 | 4 | -1 | 1 | 9 | 2 | . | .
esBAF inh | -1 | -1 | 4 | 4 | 1 | -5 | . | .
MITF act | -7 | . | 5 | -9 | -10 | . | 3 | 33
miR122 inh | 3 | 0[16.7 µM] | 104* | 109* | 51 | . | . | .
UUG fidelity | 131* | -2 | -5 | -11 | -1 | . | . | .

Part of the list above, limited to UUG fidelity, PglD inh and Wnt act:
| entry | smiles | UUG fidelity | PglD inh | Wnt act |
| --- | --- | --- | --- | --- |
| 5 | C[C@@H]1CN([C@@H](C)CO)C(=O)c2cc(C#C[C@@H](C)O)cnc2O[C@@H]1CN(C)Cc1ccccn1 | -25 | 1 | . |
| 6 | Brc1ccc(C2=NC(Cc3ccccc3)CO2)cc1 (stereo not drawn) | -21 | 5 | 20 |
| 7 | CC1=CC(=C2N=C(c3ccccc3)OC2=O)C=C(C)O1 | 6 | -5 | . |

Next section
[17] Cc1ccc(C2NC(=O)c3c(sc(C)c3C)N2)c(O)c1 (stereo not drawn)
[18] Cc1cccc(C2NC(=O)c3c(sc(C)c3C)N2)c1O (stereo not drawn)
[19] Cc1ccc(S(=O)(=O)N[C@H]2C=C[C@H](CC(=O)NCc3ccncn3)O[C@@H]2CO)cc1
[20] Cc1ccc(-c2nc3ccsc3c(=O)o2)cc1
[21] Cc1ccc(-n2c(C)nc3ccsc3c2=O)cc1
[22] COc1cccc(OC)c1C1=CC(=O)C[C@H](c2ccc3c(c2)OCO3)C1
[23] COc1cccc(C2=CC(=O)C[C@H](c3ccc4c(c3)OCO4)C2)c1OC
[24] Cc1cc2sc3nc(=O)n(-c4ccccc4)c(=O)n3c2cc1C
assay / entry | 17 | 18 | 19 | 20 | 21 | 22 | 23 | 24
Wnt act | 8 | . | . | 50* | 1 | -2 | . | 71*
PglD inh | . | . | -2 | -8 | -18 | -2 | -3 | .
esBAF inh | 98* | 16 | 0 | . | -5 | 1 | 43* | .
MITF act | 25 | -9 | . | -6 | 1 | -5 | 57 | .
miR122 inh | 6 | 7 | . | 3 | 0 | 3 | 8 | .
UUG fidelity | . | . | -11 | -22 | -8 | -3 | -13 | .

[25] COc1ccccc1Cc1c(-c2ccc(OC)c(OC)c2)nc2ccc(Cl)cn12
[26] COc1ccc(Cc2c(-c3ccc(C)cc3)nc3ccc(Cl)cn23)c(C)c1
[27] COc1ccccc1Cc1c(-c2ccc(C)cc2)nc2ccc(Cl)cn12
[28] C[C@H]1CCCCO[C@H](CN(C)S(=O)(=O)c2ccc(Cl)cc2)[C@@H](C)CN([C@@H](C)CO)C(=O)c2cc(NS(=O)(=O)c3cccs3)ccc2O1
[29] C[C@H]1CN([C@@H](C)CO)S(=O)(=O)c2ccc(C#CC3(O)CCCC3)cc2O[C@H]1CN(C)C(=O)c1ccncc1
assay / entry | 25 | 26 | 27 | 28 | 29
Wnt act | -2 | 13 | 24 | . | .
PglD inh | 2 | -3 | -2 | -7 | 0
esBAF inh | -4 | 65* | 63* | 5 | -4
MITF act | . | . | . | . | .
miR122 inh | -2 | -7 | -4 | -4[16.7 µM] | -3[16.7 µM]
UUG fidelity | 6 | -18 | -15 | 5 | -11
